Protein sequences, listed by entry. Tags and fused reporters are not part of them. Lines headed by an entry give the natural chain unless they say otherwise; changes in a name come on top.
UniProt O15379: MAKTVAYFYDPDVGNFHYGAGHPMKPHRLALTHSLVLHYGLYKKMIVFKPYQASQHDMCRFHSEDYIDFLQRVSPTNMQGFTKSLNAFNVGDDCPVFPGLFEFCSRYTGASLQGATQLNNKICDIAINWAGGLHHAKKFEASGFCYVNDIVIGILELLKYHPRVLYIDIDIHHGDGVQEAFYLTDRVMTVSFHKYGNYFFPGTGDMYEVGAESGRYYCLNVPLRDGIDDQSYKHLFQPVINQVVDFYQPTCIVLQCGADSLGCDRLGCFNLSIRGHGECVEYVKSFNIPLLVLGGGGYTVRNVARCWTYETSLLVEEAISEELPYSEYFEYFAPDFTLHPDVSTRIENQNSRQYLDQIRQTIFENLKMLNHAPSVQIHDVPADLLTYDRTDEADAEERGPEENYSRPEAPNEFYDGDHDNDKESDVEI

In patent publication US12590099B2 (dated 2026):

Each compound was assayed against Recombinant human HDAC3/SMRT heterodimer (Homo sapiens, UniProt O15379) (assay: Human HDAC enzyme inhibitor Fluor-de-Lys assay, HDAC3/SMRT). Details: HDAC3 IC50 (nM).
With `CCC(=O)CCCCC[C@H](NC(=O)[C@H]1CC12CCN(C)CC2)c1ncc(-c2cnc3cccnc3c2)[nH]1` [Compound 67] the IC50 was 14.2 nM.

Same assay, conditions: HDAC3 IC50 (nM), recombinant human HDAC3/SMRT, Fluor-de-Lys assay
With `CCC(=O)CCCCC[C@H](NC(=O)[C@H]1CC12CCN(C)CC2)c1ncc(-c2cnc(-n3cc(C)cn3)nc2)[nH]1` [Compound 257] the IC50 was 49.7 nM.
In the case of `CCC(=O)CCCCC[C@H](NC(=O)[C@H]1CC12CCN(C)CC2)c1ncc(-c2ccc(C(=O)NC3CCOC3)cc2)[nH]1` (some centres unmarked) [Compound 258], the IC50 is reported as 3.35 nM.
`CCC(=O)CCCCC[C@H](NC(=O)[C@H]1CC12CCN(C)CC2)c1ncc(-c2cnc3cccnc3c2)[nH]1` [Compound 259] showed an IC50 of 18.3 nM.
For `CCC(=O)CCCCC[C@H](NC(=O)[C@H]1CC12CCN(C)CC2)c1ncc(-c2ccc(-n3nc(C)cc3C)cc2)[nH]1` [Compound 260], the IC50 was 5.31 nM.
Work on `CCC(=O)CCCCC[C@H](NC(=O)[C@H]1CC12CCN(C)CC2)c1ncc(-c2ccnc(N3CCOCC3)c2F)[nH]1` [Compound 261] yielded an IC50 of 16.4 nM.
`CCC(=O)CCCCC[C@H](NC(=O)[C@H]1CC12CCN(C)CC2)c1ncc(-c2ccc(-c3cccnc3)nc2)[nH]1` [Compound 262] gave an IC50 of 3.36 nM.
`CCC(=O)CCCCC[C@H](NC(=O)[C@H]1CC12CCN(C)CC2)c1ncc(-c2cn(C)c3ccccc23)[nH]1` [Compound 264] gave an IC50 of less than 1.5 nM.
With `CCOc1ncc(-c2cnc([C@H](CCCCCC(=O)CC)NC(=O)[C@H]3CC34CCN(C)CC4)[nH]2)cn1` [Compound 266] the IC50 was 74.1 nM.
Work on `CCC(=O)CCCCC[C@H](NC(=O)[C@H]1CC12CCN(C)CC2)c1ncc(-c2ccn3ncnc3c2)[nH]1` [Compound 267] yielded an IC50 of 34.3 nM.
`CCC(=O)CCCCC[C@H](NC(=O)[C@H]1CC12CCN(C)CC2)c1ncc(-c2ccc(C)nc2OC)[nH]1` [Compound 268] gave an IC50 of 3.07 nM.
